# Measured values reported in PubChem BioAssay AID1224905 (ICCB-Longwood Screening Facility, Harvard Medical School, 2016).
# Amino acid sequences for entries named in this document (tags omitted).
# UniProt P08753, whole entry: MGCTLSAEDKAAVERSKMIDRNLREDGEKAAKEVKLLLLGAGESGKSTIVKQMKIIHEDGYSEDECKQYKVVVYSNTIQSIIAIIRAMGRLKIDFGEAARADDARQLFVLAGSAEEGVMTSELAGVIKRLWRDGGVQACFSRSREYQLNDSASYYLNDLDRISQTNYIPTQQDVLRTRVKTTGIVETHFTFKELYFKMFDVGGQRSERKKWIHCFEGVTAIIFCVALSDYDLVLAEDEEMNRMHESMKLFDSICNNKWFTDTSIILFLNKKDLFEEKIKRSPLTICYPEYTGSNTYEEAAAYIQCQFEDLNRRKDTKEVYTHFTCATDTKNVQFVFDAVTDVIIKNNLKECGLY
# UniProt Q3V6T2, whole entry partner: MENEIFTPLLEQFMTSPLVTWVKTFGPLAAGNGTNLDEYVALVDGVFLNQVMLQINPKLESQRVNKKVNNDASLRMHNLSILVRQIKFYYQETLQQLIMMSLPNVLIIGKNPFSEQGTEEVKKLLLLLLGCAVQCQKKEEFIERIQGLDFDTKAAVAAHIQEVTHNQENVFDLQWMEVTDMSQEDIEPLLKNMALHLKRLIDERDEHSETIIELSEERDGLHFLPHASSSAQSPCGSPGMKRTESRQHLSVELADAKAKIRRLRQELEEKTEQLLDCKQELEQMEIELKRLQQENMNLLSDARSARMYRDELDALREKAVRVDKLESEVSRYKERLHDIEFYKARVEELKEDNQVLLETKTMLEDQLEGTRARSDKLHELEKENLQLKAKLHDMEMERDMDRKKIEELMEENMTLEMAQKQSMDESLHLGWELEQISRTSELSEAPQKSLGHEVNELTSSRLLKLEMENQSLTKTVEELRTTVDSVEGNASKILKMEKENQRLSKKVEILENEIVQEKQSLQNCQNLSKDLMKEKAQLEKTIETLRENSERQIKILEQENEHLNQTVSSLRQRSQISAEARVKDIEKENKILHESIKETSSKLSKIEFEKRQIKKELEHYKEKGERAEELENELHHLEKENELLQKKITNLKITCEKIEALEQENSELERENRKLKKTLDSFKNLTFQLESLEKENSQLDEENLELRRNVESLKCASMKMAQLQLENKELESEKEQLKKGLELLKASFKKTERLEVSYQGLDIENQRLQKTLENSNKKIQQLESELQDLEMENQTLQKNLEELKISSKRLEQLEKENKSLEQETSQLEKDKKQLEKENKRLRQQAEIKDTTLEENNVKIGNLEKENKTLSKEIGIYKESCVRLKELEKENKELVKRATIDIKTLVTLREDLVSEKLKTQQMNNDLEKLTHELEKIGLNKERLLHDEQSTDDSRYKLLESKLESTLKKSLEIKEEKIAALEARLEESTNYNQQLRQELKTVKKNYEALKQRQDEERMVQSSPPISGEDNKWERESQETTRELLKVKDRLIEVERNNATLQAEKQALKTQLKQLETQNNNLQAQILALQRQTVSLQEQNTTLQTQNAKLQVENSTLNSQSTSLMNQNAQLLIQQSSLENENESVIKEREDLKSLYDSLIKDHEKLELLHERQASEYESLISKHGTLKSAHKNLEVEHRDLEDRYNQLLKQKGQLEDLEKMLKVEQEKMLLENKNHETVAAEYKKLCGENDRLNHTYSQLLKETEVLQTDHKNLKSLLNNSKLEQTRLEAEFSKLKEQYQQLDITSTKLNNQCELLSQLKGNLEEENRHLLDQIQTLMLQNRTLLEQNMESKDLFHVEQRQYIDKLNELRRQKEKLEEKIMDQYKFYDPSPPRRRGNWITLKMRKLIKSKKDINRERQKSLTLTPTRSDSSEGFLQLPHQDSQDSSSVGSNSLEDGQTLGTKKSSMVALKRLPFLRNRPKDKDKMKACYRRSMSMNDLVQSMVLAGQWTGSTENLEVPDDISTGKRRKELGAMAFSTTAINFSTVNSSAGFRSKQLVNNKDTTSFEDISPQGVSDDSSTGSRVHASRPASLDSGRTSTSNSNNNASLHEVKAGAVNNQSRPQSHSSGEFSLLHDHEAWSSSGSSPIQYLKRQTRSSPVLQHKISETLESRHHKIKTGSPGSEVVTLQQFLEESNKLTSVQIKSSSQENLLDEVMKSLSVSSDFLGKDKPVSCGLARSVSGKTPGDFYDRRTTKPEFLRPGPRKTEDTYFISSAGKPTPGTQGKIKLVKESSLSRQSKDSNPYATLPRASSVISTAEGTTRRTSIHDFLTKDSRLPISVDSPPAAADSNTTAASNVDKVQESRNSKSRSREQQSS
# Only a part is listed here, and it is no random draw. Calls of active or inactive are those of the source.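 The calls were made as follows: active = mean replicate percent of control at or below 100 minus about 85%, very high polarization wells dropped (limit read from the data); inactive = the rest.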
# Biological target: Guanine nucleotide-binding protein G(i) subunit alpha-3 (Rattus norvegicus) (UniProt P08753)
# Assay: disruptors of GIV-Galphai3 protein-protein interaction – biochemical, fluorescence polarization, FITC-GIV GBA peptide, rat Galphai3, primary screen (AID 1224905);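 also: lower values mean more displacement of the GIV peptide from Galpha-i3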
# Conditions: Galpha-i3/FITC-GIV peptide fluorescence polarization, 90 min; hits give low values; scaled: aluminum fluoride 0%, vehicle 100%
row,Compound,percent of control (FP)
1,NC(=O)C1(Nc2ccc(F)cc2)CCNCC1,inactive: 106%
2,Cc1c(C(=O)NCC2(N(C)C)CCCCC2)oc2ccc(Br)cc12,inactive: 101%
3,c1ccc(CN2CCC(Nc3ccc4c(c3)OCO4)CC2)cc1,inactive: 111%
4,O=C(NCC1(N2CCOCC2)CCCCC1)c1ccccc1Br,inactive: 100%
5,CCCCOc1ccccc1C(=O)NCC1(N2CCOCC2)CCCCC1,inactive: 102%
6,FC(F)(F)Oc1ccc(NC2CCNCC2)cc1,inactive: 102%
7,Cc1ccc2c(C)c(C(=O)NCC3(N(C)C)CCCCC3)oc2c1C,inactive: 107%
8,CCCOc1cccc(C(=O)NCC2(N3CCOCC3)CCCCC2)c1,inactive: 98.8%
9,CCOc1ccc(C(=O)NCC2(N3CCOCC3)CCCCC2)cc1,inactive: 101%
10,CC(C)(C)OC(=O)N1CCC(Nc2ccc(OC(F)(F)F)cc2)CC1,inactive: 107%
11,CCOC(=O)N1CCC(Nc2cccc(C)c2)CC1,inactive: 98.9%
12,O=C1CCN(Cc2ccccc2)CC1,inactive: 106%
13,O=C(NCC1(N2CCOCC2)CCCCC1)c1ccc(Cl)cc1,inactive: 103%
14,CCOC(=O)N1CCC(Nc2ccc(F)cc2)CC1,inactive: 102%
15,Cc1c(C(=O)NCC2(N3CCOCC3)CCCCC2)oc2cc(Br)ccc12,inactive: 98.3%
16,COc1ccccc1C(=O)NCC1(N2CCOCC2)CCCCC1,inactive: 104%
17,Cc1cc(C)c2c(C)c(C(=O)NCC3(N4CCOCC4)CCCCC3)oc2c1,inactive: 98.3%
18,N#CC1(Nc2ccccc2)CCN(Cc2ccccc2)CC1,inactive: 103%
19,Cc1c(C(=O)NCC2(N3CCOCC3)CCCCC2)oc2ccc(Cl)cc12,inactive: 105%
20,CCCN1CCC(Nc2ccc(OC)c(OC)c2)CC1,inactive: 95%

row,Compound,percent of control (FP)
1,Cc1ccccc1NC1CC(C)(C)NC(C)(C)C1,inactive: 99.3%
2,Cc1c(C(=O)NCC2(N3CCOCC3)CCCCC2)oc2ccc(Br)cc12,inactive: 105%
3,COc1cc(C(=O)NCC2(N3CCOCC3)CCCCC2)cc(OC)c1OC,inactive: 99.6%
4,Cc1c(C(=O)NCC2(N(C)C)CCCCC2)oc2ccc(Cl)cc12,inactive: 105%
5,CC(C)(C)OC(=O)N1CCC(Nc2ccccc2)CC1,inactive: 99.5%
6,CC1CN(C)C(C)CC1Nc1ccccc1 (stereo not given),inactive: 107%
7,CCN1CCC(Nc2ccc(F)cc2)CC1,inactive: 105%
8,CC(C)(C)c1ccc(C(=O)NCC2(N3CCOCC3)CCCCC2)cc1,inactive: 103%
9,Cc1ccccc1C(=O)NCC1(N(C)C)CCCCC1,inactive: 106%
10,CC1CN(Cc2ccccc2)CCC1=O (stereo not given),inactive: 113%
11,CN(C)C1(CNC(=O)c2ccc(C(C)(C)C)cc2)CCCCC1,inactive: 103%
12,O=C(NCC1(N2CCOCC2)CCCCC1)c1ccccc1,inactive: 103%
13,CCCN1CCC(Nc2cc(OC)cc(OC)c2)CC1,inactive: 96.1%
14,O=C(NCC1(N2CCOCC2)CCCCC1)c1ccc([N+](=O)[O-])cc1,inactive: 105%
15,Cc1c(C(=O)NCC2(N3CCOCC3)CCCCC2)oc2ccc(F)cc12,inactive: 96.9%
16,O=C(NCC1(N2CCOCC2)CCCCC1)c1ccccc1[N+](=O)[O-],inactive: 103%
17,Cc1c(C(=O)NCC2(N(C)C)CCCCC2)oc2cc(Br)ccc12,inactive: 107%
18,O=C1CCN(CCc2ccccc2)CC1,inactive: 111%
19,CN1CCC(Nc2ccc(F)cc2)CC1,inactive: 103%
20,NC(=O)C1(Nc2ccccc2)CCN(Cc2ccccc2)CC1,inactive: 106%
